The numbers were not newly measured in US20230081539A1, “SUPRACHOROIDAL DELIVERY OF DRUG PARTICLES TO REDUCE TOXICITY” (The Johns Hopkins University, priority 2020, published 2023), which cites them from elsewhere.

The conditions of the series: cited from earlier work.

With “3,6-diamino-10-methylacridinium chloride mixed with 3,6-acridinediamine [ACF]”, the water solubility result is “highly water soluble”.
